Experiment [1] concerns the target GST-Xa-hAAK1 (Homo sapiens, UniProt Q2M2I8). Kind of experiment: Caliper assay. The following applies: read-out: Caliper IC50; aryl ethers, class symbols.
Experiment [2] addresses AAK1 (full length human) in transfected HEK293F cells (Homo sapiens, UniProt Q2M2I8). Kind of experiment: HEK281 cell-based assay (phospho-mu2 Western blot). The following applies: read-out: CBA IC50; aryl ethers, class symbols. On the technique in general: A western blot detects proteins with antibodies after separation by electrophoresis.

The chains behind the UniProt entries cited, without tags or fusion partners. Residues count along the entry.
UniProt Q2M2I8, whole entry: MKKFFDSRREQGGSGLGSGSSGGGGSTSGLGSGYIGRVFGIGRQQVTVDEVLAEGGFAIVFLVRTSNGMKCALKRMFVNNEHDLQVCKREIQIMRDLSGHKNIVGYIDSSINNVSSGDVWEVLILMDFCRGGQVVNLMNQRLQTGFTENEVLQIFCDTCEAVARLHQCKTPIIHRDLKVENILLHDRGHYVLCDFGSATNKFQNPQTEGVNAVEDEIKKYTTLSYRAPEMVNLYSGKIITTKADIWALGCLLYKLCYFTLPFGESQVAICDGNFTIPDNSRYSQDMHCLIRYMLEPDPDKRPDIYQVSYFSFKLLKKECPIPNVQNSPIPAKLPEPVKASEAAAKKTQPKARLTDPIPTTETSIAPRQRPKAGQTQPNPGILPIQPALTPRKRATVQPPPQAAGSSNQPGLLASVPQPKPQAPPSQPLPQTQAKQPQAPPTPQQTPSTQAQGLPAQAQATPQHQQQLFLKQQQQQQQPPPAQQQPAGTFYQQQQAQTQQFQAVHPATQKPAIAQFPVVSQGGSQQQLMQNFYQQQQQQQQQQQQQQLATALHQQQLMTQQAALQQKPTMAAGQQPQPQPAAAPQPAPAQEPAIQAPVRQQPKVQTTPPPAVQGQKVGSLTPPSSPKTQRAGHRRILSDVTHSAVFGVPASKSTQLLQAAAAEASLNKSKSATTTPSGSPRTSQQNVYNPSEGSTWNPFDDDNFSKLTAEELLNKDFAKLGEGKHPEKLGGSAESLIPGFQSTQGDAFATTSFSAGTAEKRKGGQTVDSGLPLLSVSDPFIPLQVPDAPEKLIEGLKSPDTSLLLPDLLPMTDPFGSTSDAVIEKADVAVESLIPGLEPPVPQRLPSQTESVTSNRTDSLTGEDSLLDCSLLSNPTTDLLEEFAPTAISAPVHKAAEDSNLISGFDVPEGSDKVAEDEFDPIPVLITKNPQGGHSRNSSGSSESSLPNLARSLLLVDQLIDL
UniProt Q2M2I8, 1-863 isoform 2: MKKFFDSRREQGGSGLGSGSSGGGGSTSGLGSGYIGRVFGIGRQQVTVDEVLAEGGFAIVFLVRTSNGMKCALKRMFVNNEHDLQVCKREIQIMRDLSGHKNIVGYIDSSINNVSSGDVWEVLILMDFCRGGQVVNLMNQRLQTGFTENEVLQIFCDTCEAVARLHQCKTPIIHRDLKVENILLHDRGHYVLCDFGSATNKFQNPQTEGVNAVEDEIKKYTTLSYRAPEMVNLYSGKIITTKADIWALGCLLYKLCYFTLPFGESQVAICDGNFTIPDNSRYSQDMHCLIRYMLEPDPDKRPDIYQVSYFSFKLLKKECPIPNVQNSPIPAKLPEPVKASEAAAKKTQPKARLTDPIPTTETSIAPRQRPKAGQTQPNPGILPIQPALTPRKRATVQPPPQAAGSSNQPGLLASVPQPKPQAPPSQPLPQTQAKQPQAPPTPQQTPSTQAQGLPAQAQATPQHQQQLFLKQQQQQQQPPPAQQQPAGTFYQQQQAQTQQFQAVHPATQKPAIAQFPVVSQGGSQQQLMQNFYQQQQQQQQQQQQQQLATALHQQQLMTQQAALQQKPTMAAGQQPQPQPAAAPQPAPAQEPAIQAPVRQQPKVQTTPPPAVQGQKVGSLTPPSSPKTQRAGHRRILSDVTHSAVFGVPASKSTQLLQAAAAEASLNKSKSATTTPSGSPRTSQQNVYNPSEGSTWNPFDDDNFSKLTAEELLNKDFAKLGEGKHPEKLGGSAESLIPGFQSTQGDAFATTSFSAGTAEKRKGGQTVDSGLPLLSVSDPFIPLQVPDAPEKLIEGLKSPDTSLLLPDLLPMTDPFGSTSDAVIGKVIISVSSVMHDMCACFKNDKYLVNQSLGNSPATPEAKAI

The record followed here is patent US20150164899A1, “INHIBITION OF ADAPTOR ASSOCIATED KINASE 1 FOR THE TREATMENT OF PAIN” (priority 2012, published 2015).

Each structure is given as a SMILES string.

In general, IC50 refers to the concentration that gives 50% inhibition. As for `CC(C)C[C@H](N)COc1ccc2c(c1)oc(=O)c1cnccc12`, the IC50 in experiment [1] and in experiment [2] was 10 to 100 nM each time.
